The list shows a part of the results, in another mix than the full data. Some salts and complexes are drawn in separate pieces, as the source files them; their charges need not balance. The source made the active and inactive calls.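 The calls were made as follows: active = fluorescence ratio to DMSO below 75%, the collection mean minus 3 SD; inconclusive = too few cells collected in the well; inactive = the rest.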

Chains of the proteins cited; added tags and fusions are not shown.
UniProt Q9NP58, whole entry: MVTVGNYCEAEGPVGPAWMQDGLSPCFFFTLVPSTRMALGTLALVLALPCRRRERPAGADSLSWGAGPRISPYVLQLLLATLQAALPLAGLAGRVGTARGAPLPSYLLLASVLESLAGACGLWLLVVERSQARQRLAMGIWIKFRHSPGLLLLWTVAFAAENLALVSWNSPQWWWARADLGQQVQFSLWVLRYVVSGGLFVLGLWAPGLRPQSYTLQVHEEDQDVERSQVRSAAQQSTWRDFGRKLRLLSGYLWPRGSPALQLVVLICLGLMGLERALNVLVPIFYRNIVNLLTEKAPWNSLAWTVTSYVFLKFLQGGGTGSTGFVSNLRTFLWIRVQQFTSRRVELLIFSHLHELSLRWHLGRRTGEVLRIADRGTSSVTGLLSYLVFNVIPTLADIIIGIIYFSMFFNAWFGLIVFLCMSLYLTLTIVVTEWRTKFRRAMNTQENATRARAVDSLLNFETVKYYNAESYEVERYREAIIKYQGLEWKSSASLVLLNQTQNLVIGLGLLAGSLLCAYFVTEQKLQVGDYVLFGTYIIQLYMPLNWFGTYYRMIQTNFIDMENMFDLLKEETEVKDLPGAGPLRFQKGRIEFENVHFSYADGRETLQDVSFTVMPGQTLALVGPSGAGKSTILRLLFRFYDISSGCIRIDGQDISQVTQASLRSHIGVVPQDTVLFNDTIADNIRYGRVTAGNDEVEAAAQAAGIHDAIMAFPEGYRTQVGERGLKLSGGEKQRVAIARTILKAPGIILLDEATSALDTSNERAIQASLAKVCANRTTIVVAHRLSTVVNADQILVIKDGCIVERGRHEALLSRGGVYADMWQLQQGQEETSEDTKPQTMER

This experiment addresses ATP-binding cassette sub-family B member 6 (Homo sapiens) (UniProt Q9NP58). The experiment in a line: blockers of ABCB6-driven porphyrin uptake – K562-ABCB6 cells, flow cytometry, MLPCN library, primary screen (AID 602162).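 Also: signal is porphyrin accumulated inside mitochondria; 100% equals median channel fluorescence of DMSO control wells; lower ratio means ABCB6 inhibition with less porphyrin fluorescence.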 To be noted: K562-ABCB6 porphyrin accumulation, 1 h, at 10 µM, active compounds read low.
In the case of `Cc1c(C(c2ccc3c(c2)OCO3)c2c(C)n(C)n(-c3ccccc3)c2=O)c(=O)n(-c2ccccc2)n1C.O=[N+]([O-])c1cc([N+](=O)[O-])c(O)c([N+](=O)[O-])c1`, the fluorescence ratio to DMSO is inactive: 100%.
Then `COc1ccc(OP(C)(=O)Nc2cccc(Br)c2)cc1` (centres undefined), with inactive: 98%; and `CN(C)CCOC(=O)C(O)(c1ccccc1)C1CCCCC1` (centres undefined), with inactive: 101%.
For the compound `COc1ccc(NP(C)(=O)Oc2ccccc2OC)cc1` (centres undefined), the fluorescence ratio to DMSO was inactive: 168%.
As for `CP(=O)(Nc1ccc2c(c1)OCCO2)Oc1ccccc1` (centres undefined), the fluorescence ratio to DMSO is inactive: 97%.
The figure for `Cc1ccccc1NP(C)(=O)Nc1ccccc1C` is inactive: 99%; for `O=[N+]([O-])c1cc([N+](=O)[O-])c(C(F)(F)F)c([N+](=O)[O-])c1O` it is inactive: 96%.
Turning to `CP(=O)(Nc1ccc(SC(F)(F)F)cc1)Oc1ccc(F)cc1` (centres undefined), the fluorescence ratio to DMSO was inactive: 100%.
Turning to `CCOP(C)(=S)SCC(=O)NC(C)(CC)C(=O)O` (centres undefined), the fluorescence ratio to DMSO was inactive: 97%.
In the case of `O=C(OC1CN2CCC1CC2)c1ccc([N+](=O)[O-])cc1` (centres undefined), the fluorescence ratio to DMSO is inactive: 101%.
With `O=C(OCCN1CCN(CCOCc2ccccc2)CC1)C(O)(c1ccccc1)c1ccccc1`, the fluorescence ratio to DMSO was inactive: 94%.
Consider `COc1ccc2c(c1O)-c1c(O)c(OC)cc3c1[C@H](C2)[N+](C)(C)CC3.O=[N+]([O-])c1cc([N+](=O)[O-])c([O-])c([N+](=O)[O-])c1[O-]`, for which the fluorescence ratio to DMSO was inactive: 97%.
`O=[N+]([O-])c1cc([N+](=O)[O-])c(Nc2ccc(Cl)cc2)c([N+](=O)[O-])c1`: the fluorescence ratio to DMSO was inactive: 97%.
Take `CP(=O)(Nc1ccccc1F)Oc1ccccc1` (centres undefined): the fluorescence ratio to DMSO is inactive: 104%.
The figure for `CC(C)c1ccc(OP(C)(=O)Nc2ccc(SC(F)(F)F)cc2)cc1` (centres undefined) is inactive: 92%; for `Cc1c([N+](=O)[O-])cc([N+](=O)[O-])c(Br)c1[N+](=O)[O-]` it is inactive: 100%.
The figure for `CCN(CC)CCCOC(=O)C(O)(c1ccccc1)C1CCCCC1` (centres undefined) is inactive: 100%; for `CP(=O)(Nc1ccccc1)Oc1ccc(F)cc1` (centres undefined) it is inactive: 106%.
As to `CCCCCOc1ccc(NP(C)(=O)Oc2ccc(Cl)cc2Cl)cc1` (centres undefined), the fluorescence ratio to DMSO is inactive: 99%.
In the case of `O=[N+]([O-])c1cc([N+](=O)[O-])c(OC2CCCCC2O)c([N+](=O)[O-])c1` (centres undefined), the fluorescence ratio to DMSO was inactive: 99%.
Regarding `CCN(CC)CCCNc1ccccc1[N+](=O)[O-].O=[N+]([O-])c1cc([N+](=O)[O-])c(O)c([N+](=O)[O-])c1`, the fluorescence ratio to DMSO was inactive: 98%.
Then `CCOC(=O)c1ccc(NP(C)(=O)Oc2ccc(F)cc2)cc1` (centres undefined), with inactive: 97%; and `COc1ccc(OP(C)(=O)Nc2ccc(SC(F)(F)F)cc2)cc1` (centres undefined), with inactive: 97%; and `CCCCCCCCCCCCCCCC1C[N+](C)(C)CCOP(C)(=O)O1` (centres undefined), with inactive: 116%.
As for `CP(=O)(Nc1ccc(Cl)cc1Cl)Oc1ccccc1` (centres undefined), the fluorescence ratio to DMSO was inactive: 95%.
Then `CP(=O)(OCCOc1ccccc1)OCCOc1ccccc1`, with inactive: 97%.
Then `O=C1C(O)=C([N+](=O)[O-])C(=O)C(O)=C1[N+](=O)[O-]`, with inactive: 100%; and `Cc1cc(C)cc(OP(C)(=O)Nc2cccc(C(F)(F)F)c2)c1` (centres undefined), with inactive: 99%.
The figure for `COc1ccccc1OP(C)(=O)Nc1ccc(C)c(C)c1` (centres undefined) is inactive: 101%; for `COc1ccc(OP(C)(=O)Nc2ccccc2Br)cc1` (centres undefined) it is inactive: 96%; for `Cc1c(NP(C)(=O)Oc2ccc(C(C)C)cc2)c(=O)n(-c2ccccc2)n1C` (centres undefined) it is inactive: 87%.
As for `CP(=O)(Nc1ccccn1)Oc1ccccc1` (centres undefined), the fluorescence ratio to DMSO is inactive: 91%.
With `COc1ccccc1OP(C)(=O)Nc1ccc(C)cc1C` (centres undefined), the fluorescence ratio to DMSO is inactive: 87%.
For `CCc1ccc(OP(C)(=O)O)cc1`, the fluorescence ratio to DMSO was inactive: 148%.
On to `COc1ccccc1OP(C)(=O)Nc1ccc(Br)cc1` (centres undefined), for which the fluorescence ratio to DMSO was inactive: 94%.
The figure for `COc1ccc(OP(C)(=O)Nc2ccccn2)cc1` (centres undefined) is inactive: 98%.
With `CN(C)CCOC(=O)C(O)(c1ccccc1)C1CCCC1` (centres undefined), the fluorescence ratio to DMSO was inactive: 92%.
The figure for `COc1ccccc1OP(C)(=O)Nc1ccccc1Br` (centres undefined) is inactive: 96%.
Then `CC(C)(C)c1ccc(OP(C)(=O)O)cc1`, with inactive: 94%; and `CP(=O)(Nc1ccc(Cl)cc1)Oc1ccc(F)cc1` (centres undefined), with inactive: 98%; and `CN(C)C(=O)c1c([N+](=O)[O-])cc([N+](=O)[O-])cc1[N+](=O)[O-]`, with inactive: 113%.
Take `CCN(CC)CC(O)COC(=O)C(O)(c1ccccc1)C1CCCCC1` (centres undefined): the fluorescence ratio to DMSO is inactive: 105%.
`COc1ccc(OP(C)(=O)Nc2ccc(Br)cc2)cc1` (centres undefined): the fluorescence ratio to DMSO was inactive: 102%.
The figure for `COc1ccccc1OP(C)(=O)Nc1c(C)n(C)n(-c2ccccc2)c1=O` (centres undefined) is inactive: 97%.
Then `O=C(OCCCN1CCCC1)C(O)(c1ccccc1)C1CCCCC1` (centres undefined), with inactive: 99%.
For the compound `CP(=O)(Oc1ccccc1)N1CCOC1=O` (centres undefined), the fluorescence ratio to DMSO was inactive: 100%.
On to `CCc1ccc(OP(C)(=O)Nc2cccnc2)cc1` (centres undefined), for which the fluorescence ratio to DMSO was inactive: 99%.
In the case of `CCOC(=O)c1ccc(NP(C)(=O)Oc2ccc(Cl)cc2)cc1` (centres undefined), the fluorescence ratio to DMSO was inactive: 95%.
`CP(=O)(OC12CC3CC(CC(C3)C1)C2)OC12CC3CC(CC(C3)C1)C2`: the fluorescence ratio to DMSO was inactive: 94%.

Values taken from PubChem BioAssay AID602162 (NMMLSC, 2011).
